Assay results reported in ChEMBL document CHEMBL1135638, “Synthesis, molecular modeling studies, and pharmacological activity of selective A(1) receptor antagonists” (J Med Chem, 2002).

What was measured:
[1] = tested on: Adenosine receptor A2a (Bos taurus); assay: Percent inhibition of specific [3H]-CGS-21,680 binding to adenosine A2A receptors in bovine cortical membranes at 10 uM concentration
[2] = tested on: Adenosine receptor A3 (Bos taurus); assay: Percent inhibition of [125I]AB-MECA binding to Adenosine A3 receptor in bovine cortical membranes at 10 uM

Structure (SMILES) | inhibition [1] [%] | inhibition [2] [%]
CCOCCNc1c(C(=O)OCC)cnc2c1cnn2CC(Cl)COc1ccccc1 (configuration not stated) | 15 | 
CCOC(=O)c1cnc2c(cnn2CC(Cl)c2ccccc2)c1N1CCCC1 (configuration not stated) |  | 0
